In ChEMBL document CHEMBL1122429, “In vitro and in vivo protection of acetylcholinesterase against organophosphate poisoning by pretreatment with a novel derivative of 1,3,2-dioxaphosphorinane 2-oxide” (1983):

Columns and labels:
Conditions in all cases: in vivo
Rattus norvegicus = species: Rattus norvegicus; test: Acute toxicity was evaluated in rat
Mus musculus [1] = species: Mus musculus; test: Acute toxicity was evaluated in mouse
Mus musculus [2] = species: Mus musculus; test: Acute toxicity in mouse

Row | Structure (SMILES) | LD50 (Rattus norvegicus) [mg/kg] | LD50 (Mus musculus [1]) [mg/kg] | LD50 (Mus musculus [2]) [mg/kg]
1 | CN(C)C(=O)Oc1ccc[n+](C)c1.[Br-] | 3.1 | 2.6 | 
2 | C[N+](C)(C)c1cccc(O)c1.[I-] |  |  | 59.9
